In US20130259929A1, “USE OF A PHOSPHOPEPTIDE ABLE TO BLOCK HER3/P85 INTERACTION FOR THE TREATMENT OF HER2 HYPER-EXPRESSING TUMOURS” (priority 2010, published 2013):

Legend:
[1] = tested on: BT474 xenograft; test: Electroporation tumour therapy of BT474 xenografts; assay type: in vivo, SCID mice; details: Herceptin i.p. (FIG. 11A)
Procedure: Xeno-grafts. In vivo tests have been carried out using 40 day old SCID female mice (Harlan Laboratories, Milan, IT). At day 0, animals have been totally anesthetized with intramuscular injection of 400 μg/animal (average weight 25 g) of Zoletil (Virbac) containing 0.12% Xylor (Xylazine), and transplanted subcutaneously (s.c.), in intrascapular mouse region with pellet of […] (1.7 mg/sustained release pellet over 60 days, Innovative Research of America, Sarasota, Fla.). On the next day, 5×10^6 proliferating and scr and 1257 peptide previously transfected, as above described, MCF7 or BT474 cells, have been re-suspended in 0.1 ml of Matrigel (BD Biosciences) and subcutaneously inoculated in each mouse. Herceptin treatment involved intraperitoneal injection of 250 ul of sterile PBS containing 500 ug of antibody, two times weekly. Tumour growth has been monitored two times weekly using calibration along two orthogonal axes: length (L) and […]. The tumour volume (V) has been calculated using the formula V=L*(W2)/2. […]
Electroporation tumour therapy. […] As a further control we have analyzed two groups of not peptide injected animals, except that one of two was subjected to electroporation. Therapy has been repeated once weekly, and tumour size monitored up to 70 days. […]

[2] = tested on: MCF7/luc cells pulmonary metastases; test: Artificial lung metastases treated with liposomes; assay type: in vivo, mouse; details: 7 weeks after vein inoculation, three once-weekly treatments
Procedure: Preparation of liposomes. Unilamellar vesicles consisting of PC/Chol/mPEG-2000-DSPE (47/47/6% molar ratio) have been prepared by means of lipid film hydration. Briefly, the composition of phospholipids (PC), (Chol and MPEG-2000-DSPE), has been dissolved in a small volume of methanol/chloroform (50/50) mixture. Successively the solvent allowed to be evaporated under mild nitrogen flow. For the preparation of empty liposomes, the lipid film has been hydrated with 5 ml of HBS isotonic buffer (140 mM NaCl and 10 mM Hepes) using vortex mixer for 1 hr. For loading liposomes with 1257 phosphopeptide the freezing-thawing cyclic method has been used. The lipid film has been hydrated with 2.5 m of HBS buffer. The empty liposome suspension has been mixed with 2.5 ml of a solution containing 500 M of 1257 phosphopeptide in HBS buffer. Then the solution has been frozen at −196° C. in liquid nitrogen and thawed over 5 minutes at 30° C. in thermostated bath for 10 consecutive cycles in order to allow the peptide penetration into liposomes. […]
Since the object of the work is to inhibit or reduce the metastasis formation, it has been verified whether 1257 phosphopeptide was suitable not only to reduce the tumour, but also cell metastatic ability. To this purpose artificial metastases have been generated by vein inoculation of MCF7/luc cells in order to visualize tumours through luminescence. […]

For “Herceptin: humanized monoclonal antibody against HER2 receptor extracellular domain [reference compound]”, the “tumour mass compared to not treated control” value [1] was “reduces very remarkably the tumour mass” and the “lung metastases (bioluminescence)” value [2] was “progression of lung metastasis occurs”.
